The values that follow come from patent US20040242660A1, “Substituted oxazolidinones for combinational therapy” (priority 2001, published 2004).

Sequences of proteins named here, by UniProt entry; tags and fusion partners are left off. Residues count along the entry.
UniProt P00742, 41-179 partner limits assumed: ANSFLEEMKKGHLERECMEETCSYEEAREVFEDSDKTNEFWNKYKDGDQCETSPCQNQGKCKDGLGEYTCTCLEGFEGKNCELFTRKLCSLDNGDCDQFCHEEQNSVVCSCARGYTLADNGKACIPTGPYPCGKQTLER
UniProt P00742, 235-488 limits assumed: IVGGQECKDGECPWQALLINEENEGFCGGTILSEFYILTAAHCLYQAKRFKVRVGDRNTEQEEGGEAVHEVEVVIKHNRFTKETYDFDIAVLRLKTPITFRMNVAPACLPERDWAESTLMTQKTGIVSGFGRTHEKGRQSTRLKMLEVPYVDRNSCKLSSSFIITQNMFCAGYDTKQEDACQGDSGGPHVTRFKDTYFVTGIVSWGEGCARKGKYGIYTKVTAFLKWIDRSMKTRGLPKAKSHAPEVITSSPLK

Usually IC50 stands for the point on the concentration scale where inhibition reaches its midpoint. Low values mean greater potency, high ones weaker potency.

The target of this experiment is human factor Xa (FXa) (Homo sapiens, UniProt P00742). Briefly: Measurement of factor Xa inhibition (chromogenic substrate). It is filed as biochemical. How it is done:
a.1) Measurement of Factor Xa Inhibition
In this case, factor Xa eliminates p-nitroaniline from the chromogenic substrate.
The test substances were dissolved in various concentrations in DMSO and incubated with human FXa (0.5 nmol/l dissolved in 50 mmol/l tris buffer [C,C,C-tris(hydroxymethyl)-aminomethane], 150 mmol/l NaCl, 0.1% BSA (bovine serum albumine), pH=8,3) at 25° C. for 10 minutes. Pure DMSO serves as control.

Regarding `NC1CCN(c2ccc(N3C[C@H](CNC(=O)c4ccc(Cl)s4)OC3=O)cn2)C1` (stereo partly shown) [Example 52], inhibition was half-maximal at 190 nM (IC50).
